Measurements published in ChEMBL document CHEMBL4706705 (Bioorg Med Chem, 2021).

Amino acid sequences for entries named in this document (tags omitted).
UniProt P00533, whole entry: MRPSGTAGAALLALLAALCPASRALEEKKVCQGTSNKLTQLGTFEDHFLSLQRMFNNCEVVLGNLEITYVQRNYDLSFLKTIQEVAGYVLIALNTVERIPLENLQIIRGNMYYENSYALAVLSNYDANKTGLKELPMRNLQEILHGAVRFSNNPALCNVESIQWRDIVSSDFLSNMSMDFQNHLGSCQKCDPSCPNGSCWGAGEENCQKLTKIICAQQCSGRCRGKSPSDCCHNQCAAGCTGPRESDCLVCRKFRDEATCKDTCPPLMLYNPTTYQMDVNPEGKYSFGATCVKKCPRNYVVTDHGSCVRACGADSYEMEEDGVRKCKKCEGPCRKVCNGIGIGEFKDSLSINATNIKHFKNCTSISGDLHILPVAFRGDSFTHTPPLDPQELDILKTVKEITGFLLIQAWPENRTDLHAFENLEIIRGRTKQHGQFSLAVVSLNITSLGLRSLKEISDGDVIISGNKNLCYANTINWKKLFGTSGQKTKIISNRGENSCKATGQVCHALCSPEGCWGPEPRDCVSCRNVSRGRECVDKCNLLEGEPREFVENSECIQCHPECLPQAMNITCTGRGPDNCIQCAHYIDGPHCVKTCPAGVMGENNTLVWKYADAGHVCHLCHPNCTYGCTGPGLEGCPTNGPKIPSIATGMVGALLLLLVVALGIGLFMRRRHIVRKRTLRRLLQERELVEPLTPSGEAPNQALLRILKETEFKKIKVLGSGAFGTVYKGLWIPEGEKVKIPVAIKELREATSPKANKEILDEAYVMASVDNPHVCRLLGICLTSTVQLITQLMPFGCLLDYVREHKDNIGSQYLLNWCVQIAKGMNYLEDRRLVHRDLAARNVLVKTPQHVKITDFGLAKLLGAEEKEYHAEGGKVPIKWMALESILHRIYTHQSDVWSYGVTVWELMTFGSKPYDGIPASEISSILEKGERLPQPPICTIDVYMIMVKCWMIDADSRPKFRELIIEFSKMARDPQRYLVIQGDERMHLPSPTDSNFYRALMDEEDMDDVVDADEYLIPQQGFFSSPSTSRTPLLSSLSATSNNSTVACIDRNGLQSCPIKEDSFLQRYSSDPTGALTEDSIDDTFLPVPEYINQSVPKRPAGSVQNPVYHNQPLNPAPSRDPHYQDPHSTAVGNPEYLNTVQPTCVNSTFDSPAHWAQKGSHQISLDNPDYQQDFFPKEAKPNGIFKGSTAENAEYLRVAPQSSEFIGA

Biological target: Epidermal growth factor receptor (Homo sapiens, UniProt P00533)
Experiment: Inhibition of wild-type EGFR (unknown origin) using biotinylated TK peptide as substrate measured after 30 mins by HTRF assay

Q: With `C#CCn1cc(-c2ccnc(Nc3cc(NC(=O)C=C)c(N(C)CCN(C)C)cc3OC)n2)c2ccccc21` as the molecule, how does the IC50 read?
A: 13.7 nM
